# Binding of CDR-mutated scFvs to a peptide of the spike HR2 region

Source: Li et al. 2023 (doi:10.1038/s41467-023-39022-2), MIT Lincoln Laboratory and A-Alpha Bio; data file from the FLAb repository.

Binding partner: SARS-CoV-2 spike HR2 peptide, sequence PDVDLGDISGINAS.

Each scFv is VH, three GGGGS repeats, VL, as in the parent Ab-14, and differs from it in the CDRs of the light chain only.
VH: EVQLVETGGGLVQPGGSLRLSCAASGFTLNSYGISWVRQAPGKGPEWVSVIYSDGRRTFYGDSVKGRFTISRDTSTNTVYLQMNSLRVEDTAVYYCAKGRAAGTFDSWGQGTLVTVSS
VL: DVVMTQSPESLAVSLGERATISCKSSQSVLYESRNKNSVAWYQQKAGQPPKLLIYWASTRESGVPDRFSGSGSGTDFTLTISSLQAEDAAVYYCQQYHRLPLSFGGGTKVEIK

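The starting antibody came from a phage panning campaign against this peptide. This is the validation round: designs drawn from the data on random variants, tested in the same kind of assay. Group labels follow the data file (Ctrl: baseline library sampled from a position-specific scoring matrix, with some repeated check sequences; Rand: our label for a block that the file lists under HC and that is probably the random mutants of the ten best first-round binders; GP: Gaussian process model; HC: hill climbing; Gen: genetic algorithm; Gibbs: Gibbs sampling; a sequence that several methods proposed may carry one label only). AlphaSeq pools MATa yeast showing the antibodies with MATalpha yeast showing the peptide. After mating in shaken culture at 30 °C for 16 h, diploids were selected and their barcode pairs sequenced. Scores were corrected for input abundance and mapped to Kd with protein pairs of known affinity run in the same pool. Each pool was mated in six replicate cultures.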

Variants are written as CDR1, CDR2 and CDR3 of the light chain (limits as in the source). Parent: KSSQSVLYESRNKNSVA, WASTRES, QQYHRLPLS. This list holds designs with at most six substitutions. The Kd shown is the geometric mean over detected replicates; a lower Kd is a better binder. A pair that was not seen in any replicate is written "nd"; this usually means weak binding, but a binder can also be missed. Nonspecific signal, from three strains lacking the peptide, appeared in 4% of pairings of all light chain designs, centred on 430 nM (5% of these signals below 38 nM); values are not corrected for it. Values of this round are not directly comparable with the first-round values of the same sequences. The parent sequence was in this pool as ten entries: three were never detected, three once, and four in most replicates, with averages from 2.2 nM to 240 nM. The authors' rule: three or more of the six replicates give a measured affinity, fewer mean a poor binder.

For VSSQSFLYESRNKNSVA, GASTRES, QQYHRLPLS [GP_HC], the assay gave 1.4 nM (6 of 6 replicates).
For KMSQSVPYESRNKNSVA, NASQRES, QQYHRLPLS [GP_Gen], the assay gave 460 pM (6 of 6 replicates).
For KTEGSWLYESRNKNSVA, NASERES, QQYHRLPLS [GP_Gibbs], the assay gave 510 pM (6 of 6 replicates).
For KSSQSSLYESRNKNSVA, WASTRYS, QQYHSLPLS [Ctrl], the assay gave 18 nM (6 of 6 replicates).
For KLQQSQLYESRNFNSVA, HASTRED, QQYHRLPLS [GP_HC], the assay gave 880 pM (6 of 6 replicates).
For KSCQSVLYESDNKNSVA, WASTRES, FQYERQPLS [Ctrl], the assay gave nd (0 of 6 replicates).
For KVSQSELYESRNKNSVA, NASTRES, QSYHRLPLS [GP_Gen], the assay gave 860 pM (6 of 6 replicates).
For KVQQSVLYEGRNKNSVA, HASTRED, QQYHRLPLS [GP_HC], the assay gave 1.1 nM (6 of 6 replicates).
For KASQSVDFESRNKNSVA, DASTRES, QQYHRLPLS [GP_HC], the assay gave 470 pM (6 of 6 replicates).
For KLSQSELYESRNKNSVA, EASLRES, QQYHRLPLS [GP_Gen], the assay gave 2.2 nM (6 of 6 replicates).
For KSSQSVLYESCNKNSVA, HASTRES, QQYHRLPLS [Ctrl], the assay gave 47 nM (6 of 6 replicates).
For KLSQSVLYESRMKNNVA, NASTRES, QQYHRLPLS [GP_Gen], the assay gave 550 pM (6 of 6 replicates).
For KYSQSVLYEWRNKNSVA, DASTRES, QQYHRLPLS [GP_HC], the assay gave 2.6 nM (6 of 6 replicates).
For KVSQSVLYESRNKNSVA, WASTRER, QQYHREPLS [Ctrl], the assay gave nd (0 of 6 replicates).
For KLSQSVLYEDRNKNNVA, HASTRES, QQYHRLPLS [GP_Gen], the assay gave 350 pM (6 of 6 replicates).
For KSSQSVLPEMRNKNSVA, WASTRES, QQYHRLPAS [Ctrl], the assay gave nd (0 of 6 replicates).
For KSSQSVLYESQNKNSVA, SASTRES, QQYHRLPLS [Ctrl], the assay gave 2.6 nM (6 of 6 replicates).
For HLSFSVLYESRNKNSVA, NASTRES, QQYHRLPLS [GP_HC], the assay gave 680 pM (6 of 6 replicates).
For KQSQSILCESRNKNSVA, DASTRES, LQYHRLPLS [Rand], the assay gave nd (0 of 6 replicates).
For KSSVSYLYESRNKNSVA, EASTRES, QQYHRLPLM [GP_HC], the assay gave 1.9 nM (6 of 6 replicates).
For LSSQSWLYESRNKNSVA, GASTRES, QQYHRLPLS [GP_HC], the assay gave 1.2 nM (6 of 6 replicates).
For KLPQSDLYESRNKNSVA, NASTRMS, QQYHRLPLS [GP_Gen], the assay gave 480 pM (6 of 6 replicates).
For KVSISYLLESRNKNSVA, EASTRES, QQYHRLPLS [GP_HC], the assay gave 1.8 nM (6 of 6 replicates).
For KSQQSVLDEERNDNSVA, WASHRES, QQYHRLPLS [GP_Gibbs], the assay gave 20 nM (6 of 6 replicates).
For KLSQSVLMLSRNKNSVA, EASTRES, QQYHRLPLS [GP_Gen], the assay gave 370 pM (6 of 6 replicates).
For AMSQSVLYESRNKNNVA, WASTRES, QQYHALPLS [Ctrl], the assay gave 4.3 nM (6 of 6 replicates).
For KSSQSVLNESRNKNSVA, WASTRSS, QQYHRLPLS [Ctrl], the assay gave 130 nM (4 of 6 replicates).
For KVSQSVLYESRNKNSVA, NASTREK, QQYHRLPLS [GP_Gen], the assay gave 390 pM (6 of 6 replicates).
For KFSQSYLYESRNKNSVA, NASTRES, QQYHRLPLS [GP_Gen], the assay gave 550 pM (6 of 6 replicates).
For KSSQSFLYESRNKNSVA, GAVTRES, QQYHRLMLS [Rand], the assay gave nd (0 of 6 replicates).
For FSSQSVLYESSFKNSVA, WASTRES, QQYHRMPLS [Ctrl], the assay gave nd (0 of 6 replicates).
For KSSQSVLGESRNKNSVA, WASTRPV, QQQHRLPLS [Ctrl], the assay gave nd (0 of 6 replicates).
For KLSQSVGYESRNKNSVA, AASTRES, QQYHRLPLS [GP_Gen], the assay gave 930 pM (6 of 6 replicates).
For KVYQSHLYESRNKNSVA, NASTRES, QQYHRLPLS [GP_Gen], the assay gave nd (0 of 6 replicates).
For KSSQSVQYESENKNSVA, WASTRES, QQWARLPLS [Ctrl], the assay gave nd (0 of 6 replicates).
For KSAESVLYESRNKNSVA, WASTRES, QQYHRLPLS [Ctrl], the assay gave 50 nM (2 of 6 replicates).
For KLSQSMLYESRNKNSVA, EASTREV, QQYHRLPLS [GP_Gen], the assay gave nd (0 of 6 replicates).
For KSSQSVLYESRNGNSVA, WASTRES, QQYHRLPLE [Ctrl], the assay gave 120 nM (1 of 6 replicates).
For KSSQSVLYESRNANSVA, SASTRES, QQYHRLPLS [Ctrl], the assay gave 26 nM (6 of 6 replicates).
For KSSIPVLYGSRNKNPVA, WASTRES, QQYHRLPLS [Ctrl], the assay gave 38 nM (1 of 6 replicates).

Extract of 4 entries:

| CDR-L1 | CDR-L2 | CDR-L3 | group | apparent Kd | seen in |
|---|---|---|---|---|---|
| KVSQSVLYESRNKNSVA | WASTRER | QQYHREPLS | Ctrl | nd | 0 of 6 |
| KLQQSQLYESRNFNSVA | HASTRED | QQYHRLPLS | GP_HC | 880 pM | 6 of 6 |
| KSSIPVLYGSRNKNPVA | WASTRES | QQYHRLPLS | Ctrl | 38 nM | 1 of 6 |
| KVSISYLLESRNKNSVA | EASTRES | QQYHRLPLS | GP_HC | 1.8 nM | 6 of 6 |